The values that follow come from PubChem BioAssay AID504462 (Sanford-Burnham Center for Chemical Genomics, 2011).

Sequences of proteins named here, by UniProt entry; tags and fusion partners are left off. A change or cut given only in a name is not applied to a line headed by its entry.
UniProt Q9Y4P1: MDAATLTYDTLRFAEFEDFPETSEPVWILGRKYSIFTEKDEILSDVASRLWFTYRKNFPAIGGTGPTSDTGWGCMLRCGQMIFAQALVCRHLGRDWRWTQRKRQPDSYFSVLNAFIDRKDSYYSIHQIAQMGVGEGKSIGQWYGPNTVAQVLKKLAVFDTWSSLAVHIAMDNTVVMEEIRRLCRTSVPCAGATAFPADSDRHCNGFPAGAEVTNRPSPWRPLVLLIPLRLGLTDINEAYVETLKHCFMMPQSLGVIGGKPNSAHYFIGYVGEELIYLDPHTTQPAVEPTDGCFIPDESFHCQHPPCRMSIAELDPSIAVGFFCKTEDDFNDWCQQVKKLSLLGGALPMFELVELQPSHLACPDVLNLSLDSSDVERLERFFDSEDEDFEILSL

The list shows a part of the results, in another mix than the full data. The source made the active and inactive calls. Cut-off read from the data, not from the text of the source: active = inhibition above about 40%; inactive = the rest.

One may read the inhibition as the drop in the measured response relative to a control, in per cent.

This experiment addresses Cysteine protease ATG4B (Homo sapiens) (UniProt Q9Y4P1). Kind of experiment: ATG4B protease inhibitors, primary screen, biochemical, fluorescence, uHTS (AID 504462). The note with it: ATG4B cleavage of LC3-PLA2, NBD-HPC fluorescence, 1 h; at 8.33 µM; hits give high values.
For `CC(C)(C)C(=O)NC(Sc1ccncn1)C(Cl)(Cl)Cl` (centres undefined), the inhibition is inactive: 0.01%. As for `O=[N+]([O-])c1ncn(CCn2ncnc2[N+](=O)[O-])n1`, the figure is inactive: -3.67%; as for `Cc1cc(SC(NC(=O)c2ccc(F)cc2)C(Cl)(Cl)Cl)ncn1` (centres undefined), inactive: -0.02%. In the case of `CCOP(=O)(Nc1ccccc1)OCC` it was inactive: -8.8%. As for `Cc1ccc(NP(=O)(Oc2ccccc2F)Oc2ccccc2F)nc1`, the figure is inactive: -2.18%; as for `CN(C(=O)Cc1ccc(Cl)c(Cl)c1)[C@H]1CCCC[C@@H]1N1CCCC1`, inactive: -3.27%. As for `CC(=O)Nc1ccc([As](=O)(O)O)cc1`, the inhibition was inactive: 4.62%. As for `O=C(O)c1ccccc1[As](=O)(O)O`, the figure is inactive: -7.58%; as for `CCCC1OP(N)(=O)OCC1CC` (centres undefined), inactive: -3.12%; as for `O=P(Nc1nc2ccc(Cl)cc2s1)(c1ccccc1)c1ccccc1`, inactive: -0.16%.

With `CCN(N=Nc1nonc1N)c1nonc1N`, the inhibition is inactive: 7.2%. As for `Nc1cccc2ccc([As](=O)(O)O)cc12`, the figure is inactive: 6.06%; as for `COc1ccccc1OP(=O)(Nc1ccc(C)cn1)Oc1ccccc1OC`, inactive: 3.56%.

As to `Cc1ccc(OP(=O)(Nc2nccs2)Oc2ccc(C)cc2)cc1`, the inhibition is inactive: -5.7%.

As for `CN1CCCC(OC(=O)C(c2ccccc2)c2ccccc2)C1` (centres undefined), the inhibition is inactive: -4.4%. As for `Clc1ccc(Cl)c(NC2=NCC(CBr)S2)c1` (centres undefined), the figure is inactive: -6.01%; as for `NC(=O)c1cc([N+](=O)[O-])cc([N+](=O)[O-])c1N`, inactive: -8.59%; as for `CN(C(=O)Cc1ccc(Cl)c(Cl)c1)[C@H]1CCCC[C@H]1N1CCCC1`, inactive: -6.15%. Take `Cc1ccc(N/C(=N/P(=O)(N2CCOCC2)N2CCOCC2)N2CCOCC2)cc1`: the inhibition was inactive: -2.69%. For the compound `Nc1cc(N)c2nonc2c1[N+](=O)[O-]`, the inhibition is inactive: -10.8%. On to `CC(C)CC(=O)NC(Sc1ccc(Cl)cc1)C(Cl)(Cl)Cl` (centres undefined), for which the inhibition was inactive: 13.1%.

In the case of `Oc1ccccc1CNc1ccccn1`, the inhibition was inactive: 6.05%. As for `O=C(NC(Sc1ccncn1)C(Cl)(Cl)Cl)c1ccccc1` (centres undefined), the figure is inactive: 7.46%; as for `CCc1cc(O)c([N+](=O)[O-])c(C)c1[N+](=O)[O-]`, inactive: -2.2%; as for `CC(C)(C)C(=O)NC(Sc1ccccc1)C(Cl)(Cl)Cl` (centres undefined), inactive: -0.28%. In the case of `O=P1(Nc2nc3ccc(Cl)cc3s2)COc2ccccc2O1` (centres undefined) it was inactive: 9.77%.

`CCOc1ccc(C2=NCC(CBr)S2)cc1` (centres undefined): the inhibition was inactive: -9.38%. With `CC(=O)Nc1ccc([As](=O)(O)O)c(O)c1`, the inhibition was inactive: -1.98%. In the case of `CC(=O)Nc1ccc(Oc2c([N+](=O)[O-])cc([N+](=O)[O-])cc2[N+](=O)[O-])cc1` it was inactive: -4.78%; in that of `CC(=O)c1ccc(N2CC2c2ccncc2)cc1` (centres undefined), inactive: 3.74%; in that of `N#C/C(=C\c1ccc(N(CCBr)CCBr)cc1)C(N)=O`, inactive: -4.4%. In the case of `COC(=O)C1(C)COP(=O)(NCc2ccccc2)OC1` (centres undefined), the inhibition is inactive: -2.09%.

For the compound `Cc1ccccc1CN(C)C(=O)COC(=O)C(O)(c1ccccc1)c1ccccc1`, the inhibition was inactive: -5.72%.

With `C[C@H]1OP(=O)(Oc2ccccc2)C[C@@H]2O[C@@H]21` (some centres undefined), the inhibition was inactive: 2.62%. On to `C[C@@H]1C=CCP(=O)(Oc2ccccc2)O1` (some centres undefined), for which the inhibition was inactive: -8.71%. As for `O=P1(N(CCCl)CCCl)OCCC2CCCCN21` (centres undefined), the figure is inactive: -0.07%.

Regarding `CCNC(=S)/N=C(\N)N[N+](=O)[O-]`, the inhibition was inactive: -3.49%. As for `O=C(NC1CCS(=O)(=O)C1)NP(=S)(Oc1ccccc1)Oc1ccccc1` (centres undefined), the figure is inactive: 0.85%; as for `c1ccc(-c2nn[nH]n2)c(-c2nn[nH]n2)c1`, inactive: 5.65%; as for `Cc1ccc(NP(=O)(Oc2cccc(C)c2)Oc2cccc(C)c2)nc1`, inactive: -4.23%.

As for `CC(NC(=O)COC(=O)C(O)(c1ccccc1)c1ccccc1)c1ccccc1` (centres undefined), the inhibition is inactive: -5.9%. Take `Cc1ccccc1OP(=O)(Nc1ccccn1)Oc1ccccc1C`: the inhibition was inactive: 7.41%. `O=c1c2cc([N+](=O)[O-])ccc2[nH]c2c([N+](=O)[O-])cc([N+](=O)[O-])cc12`: the inhibition is inactive: 2.92%. In the case of `CN(C)C(=O)Oc1noc2ccccc12` it was inactive: -8.78%; in that of `COC(=O)c1cc2c(s1)N=C(c1ccccc1)N(C)P2(=O)N1CCOCC1` (centres undefined), inactive: 4.24%; in that of `Cc1ccc(OP(=O)(Nc2ccccn2)Oc2ccc(C)cc2)cc1`, inactive: -10.8%. As for `CC(=O)NC(SC(=S)N(CC(C)C)CC(C)C)C(Cl)(Cl)Cl` (centres undefined), the figure is inactive: -1.65%; as for `O=C(OC1CN2CCC1CC2)c1ccccc1` (centres undefined), inactive: 0.81%; as for `CCC(=O)N1C2C3N(C(=O)CC)C1C1N(C(=O)CC)C(C(N1C(=O)CC)N3C(=O)CC)N2C(=O)CC`, inactive: -10.1%. Turning to `O=P(Nc1nc2ccccc2s1)(c1ccccc1)c1ccccc1`, the inhibition is inactive: -2.3%.

For `C[C@H]1OP(=O)(Oc2ccccc2)[C@H](O)[C@H](O)[C@H]1N=[N+]=[N-]` (some centres undefined), the inhibition is inactive: -0.98%. As for `COc1ccc(N)c([N+](=O)[O-])c1[N+](=O)[O-]`, the figure is inactive: -5.56%; as for `O=P(Nc1ccccn1)(c1ccc(Br)cc1)c1ccc(Br)cc1`, inactive: -7.13%. In the case of `CN(C)C1(CNC(=O)c2ccc(Cl)c(S(N)(=O)=O)c2)CCCCC1` it was inactive: 1.68%; in that of `C(Cc1nn[nH]n1)Cc1nn[nH]n1`, inactive: 7.95%; in that of `Nc1ccc([As](=O)(O)c2ccc([N+](=O)[O-])cc2)cc1`, inactive: -6.01%. Take `O=C(OC1CN2CCC1CC2)c1cccc(Cl)c1` (centres undefined): the inhibition is inactive: -5.74%. Consider `O=[N+]([O-])c1ccc(O)c(/C=N/Nc2ccc([N+](=O)[O-])cc2[N+](=O)[O-])c1`, for which the inhibition is inactive: 7.56%. As for `O=[N+]([O-])c1ncn(CCn2cnc([N+](=O)[O-])n2)n1`, the inhibition was inactive: 3.22%.

With `CC(=O)NC(SC(=S)N(C)C)C(Cl)(Cl)Cl` (centres undefined), the inhibition was inactive: 5.16%. In the case of `O=[As](O)(c1ccccc1)c1ccc(O)cc1` it was inactive: -0.34%; in that of `c1nnnn1CCn1cnnn1`, inactive: 1.84%. Regarding `CC(C)C(=O)NC(Sc1ccccc1)C(Cl)(Cl)Cl` (centres undefined), the inhibition was inactive: 6.31%.

As for `O=P(Nc1nccs1)(c1ccccc1)c1ccccc1`, the inhibition is inactive: -0.01%.
